# ChEMBL document CHEMBL4138316, “Optimization of Isothiazolo[4,3- b]pyridine-Based Inhibitors of Cyclin G Associated Kinase (GAK) with Broad-Spectrum Antiviral Activity” (J Med Chem, 2018)
# Tested on: Huh-7
# Test: Cytotoxicity against human HuH7 cells after 48 hrs by Alamar Blue assay
# Assay type: cell-based
# Details: huh-7, 48 h
structure (smiles),measurement,value
COc1cc(-c2cnc3c(N4CCOCC4)snc3c2)ccc1N,CC50,17 µM
